Molecules are shown by their SMILES.

For `CC(C)c1cc(-c2nnc(S)n2-c2ccc3c(ccn3C)c2)c(O)cc1O` [Compound 1, 4-isopropyl-6-(5-mercapto-4-(1-methyl-1H-indol-5-yl)-4H-1,2,4-triazol-3-yl)benzene-1,3-diol], where the note is “SD rats, i.v., Day 2, 6 h, mg/kg: AUY922 10, 17-DMAG 20, Compound 1 50, 17-AAG 80”, the CSF concentration entry is “BQL”. Moreover, the “Elimination from the retina (in words)” value (rats) was “more rapidly eliminated from the retina”.

For the origin of these results see patent US8628752B2, “Methods of identifying HSP90 inhibitors with less ocular toxicity” (Synta Pharmaceuticals Corp., priority 2011, dated 2014).
